Article PMC5360572 (EBioMedicine, 2017)

By UniProt entry, the sequences of proteins in these tests, tags left out. Residues count along the entry.
UniProt Q9EP73, 19-239: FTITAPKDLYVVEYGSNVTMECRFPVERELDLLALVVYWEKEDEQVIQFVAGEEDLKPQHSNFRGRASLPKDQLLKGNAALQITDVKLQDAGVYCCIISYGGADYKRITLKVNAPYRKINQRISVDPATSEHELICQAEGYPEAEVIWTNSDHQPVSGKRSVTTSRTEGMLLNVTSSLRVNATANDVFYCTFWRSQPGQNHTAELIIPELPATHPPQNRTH

Legend:
Experiment in all cases: SPR; BIAcore 3000, 25 °C; PD-L1-Ig or PD-L2-Ig immobilized on CM5 chip by amine coupling; soluble monomeric PD-1 or mutants (0.01–100 μM) injected at 20 μl/min; equilibrium Kd, 1:1 Langmuir model
Settings in all cases: both partners purified
[1] = biological target: T1, human PD-L2 Ig fusion protein (human, UniProt Q9BQ51 20-220)
T1 construct: characterized by SEC prior to use; also called huPD-L2; B7-DC; source: bought: R&D Systems
T1 sequence (looked up): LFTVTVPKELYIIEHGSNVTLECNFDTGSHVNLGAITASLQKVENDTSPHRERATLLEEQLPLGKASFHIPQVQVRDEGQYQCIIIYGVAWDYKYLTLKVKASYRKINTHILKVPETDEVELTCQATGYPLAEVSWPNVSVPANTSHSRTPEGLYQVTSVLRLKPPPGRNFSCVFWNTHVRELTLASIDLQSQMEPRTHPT

[2] = biological target: T2, mouse PD-L1 Ig fusion protein (mouse, UniProt Q9EP73, in part)
T2 construct: mouse PD-L1 part of a bought Ig fusion protein; also called mPD-L1; murine PD-L1-Ig; source: bought: R&D Systems

[3] = biological target: T3, mouse PD-L2 Ig fusion protein (mouse, UniProt Q9WUL5 20-221)
T3 construct: mouse PD-L2 part of a bought Ig fusion protein; also called mPD-L2; murine PD-L2-Ig; source: bought: R&D Systems
T3 sequence (looked up): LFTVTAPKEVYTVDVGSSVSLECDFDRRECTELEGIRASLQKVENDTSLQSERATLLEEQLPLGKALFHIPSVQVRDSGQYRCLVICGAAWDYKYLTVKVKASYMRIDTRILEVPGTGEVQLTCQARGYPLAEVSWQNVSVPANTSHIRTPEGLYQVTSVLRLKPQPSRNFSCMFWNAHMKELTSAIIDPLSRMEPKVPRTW

B1: human PD-1 extracellular IgV domain, wild type (soluble, monomeric) (domain or fragment)
chain: WNPPTFSPALLVVTEGDNATFTCSFSNTSESFVLNWYRMSPSNQTDKLAAFPEDRSQPGQDCRFRVTQLPNGRDFHMSVVRARRNDSGTYLCGAISLAPKAQIKESLRAELRVTERRAEVPTAHPSPSP
notes: numbering relative to the initiator methionine; cloned into pET3a between NdeI and BamH1; no tag is named; also called huPD-1; soluble monovalent PD-1
B1 gave a Kd [1] of 190 nM, a Kd [2] of 3810 nM and a Kd [3] of 270 nM.
